# From patent EP4810518A2, “ANTIBODY THAT BINDS ERBB-2 AND ERBB-3” (Merus B.V., priority 2017, dated 2018)
# Tested on: intracranial ST1360B PDX tumors
# Details: individual mouse, scale 0-4 (0 no, 4 massive brain edema)
substance,measurement,setting,value
T-DM1,Brain edema score day 3,day 3 post initiation of therapy,1 and 2
same,Brain edema score day 7,day 7 post initiation of therapy,2 (2×) and 1 (3×)
same,Brain edema score day 10,day 10 post initiation of therapy,3 (2×) and 2 and 1
same,Brain edema score day 14,day 14 post initiation of therapy,2 (3×) and 3 (2×)
same,Brain edema score day 21,day 21 post initiation of therapy,2
same,Brain edema score day 28,day 28 post initiation of therapy,3
same,Brain edema final score,last MR scan of each mouse,3 (4×) and 2

# “And” between values parts separate entries of the source, which are not always exact repeats. Equal entries are not always repeated.
